Test system: Klebsiella pneumoniae ATCC 700603
Conditions: minor letter component 5 mg
Method: Antimicrobial activity was evaluated using the Community for Open Antimicrobial Drug Discovery (CO-ADD) screening platform. Minimum inhibitory concentrations (MICs) were determined against the following five bacterial strains: Escherichia coli (E. coli) ATCC 25922, Klebsiella pneumoniae ATCC 700603, Acinetobacter baumannii ATCC 19606, Pseudomonas aeruginosa ATCC 27853, and Staphylococcus aureus ATCC 43300.
Bacteria were cultured in cation-adjusted Mueller–Hinton broth (CAMHB) at 37 °C overnight. Cultures were diluted 40-fold in fresh broth and incubated at 37 °C for 1.5–3 h. […]
Bacterial growth inhibition was determined by measuring the absorbance at 600 nm (OD600) using a Tecan M1000 Pro monochromator plate reader. The percentage of growth inhibition was calculated using negative (media only) and positive (bacteria without inhibitors) controls. Significance was determined by modified Z scores calculated using the median and MAD of the samples on the same plate. […]
The fractional inhibitory concentration (FIC) index was calculated to determine synergy, additivity, or antagonism.
Colistin and VAN were used as positive bacterial inhibitor standards for Gram-negative and Gram-positive bacteria, respectively. The quality control (QC) of the assays was determined by the antimicrobial controls and the Z’ factor (using positive and negative controls). […]

penicillin [reference compound]
MIC against Kp (K. pneumoniae ATCC 700603, CAMHB, 5 × 10^5 CFU/mL, 37 °C, 18 h, OD600, mixtures: capital letter component 95 mg): >32 µg/mL | MIC, Kp (Table 1S) (supplement Table 1S, unit not given (main-text tables: μg/mL), capital letter component 95 mg): > 32

Reference: PMC11923837, “Proline-Modified (RW)n Peptides: Enhancing the Antimicrobial Efficacy and Selectivity against Multidrug-Resistant Pathogens” (ACS Omega, 2025)
